The term IC50 denotes the point on the concentration scale where inhibition reaches its midpoint.

Protein sequences, listed by entry. Tags and fused reporters are not part of them. Lines headed by an entry give the natural chain unless they say otherwise; changes in a name come on top.
UniProt Q07343: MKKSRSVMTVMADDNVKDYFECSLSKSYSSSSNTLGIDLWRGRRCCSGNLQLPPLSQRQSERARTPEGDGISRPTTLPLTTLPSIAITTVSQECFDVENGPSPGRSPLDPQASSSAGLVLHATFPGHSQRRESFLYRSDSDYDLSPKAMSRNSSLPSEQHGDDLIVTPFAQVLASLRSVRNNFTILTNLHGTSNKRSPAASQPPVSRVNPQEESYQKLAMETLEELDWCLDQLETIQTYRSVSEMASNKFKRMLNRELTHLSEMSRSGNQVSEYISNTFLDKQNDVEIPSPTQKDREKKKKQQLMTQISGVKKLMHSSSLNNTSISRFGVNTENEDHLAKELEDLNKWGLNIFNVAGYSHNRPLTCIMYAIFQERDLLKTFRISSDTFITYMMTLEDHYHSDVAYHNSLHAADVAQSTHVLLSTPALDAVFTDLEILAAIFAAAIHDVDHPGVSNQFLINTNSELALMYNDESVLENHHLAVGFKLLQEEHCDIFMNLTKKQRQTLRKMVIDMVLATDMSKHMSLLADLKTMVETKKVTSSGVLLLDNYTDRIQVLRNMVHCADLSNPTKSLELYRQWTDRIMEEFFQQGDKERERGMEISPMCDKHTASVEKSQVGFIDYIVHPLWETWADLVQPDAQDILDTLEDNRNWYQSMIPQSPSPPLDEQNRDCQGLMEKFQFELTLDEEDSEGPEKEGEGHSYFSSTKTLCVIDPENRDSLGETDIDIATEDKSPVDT

Results on 41 compounds are retold here after ChEMBL document CHEMBL3862036, “Biphenyl Pyridazinone Derivatives as Inhaled PDE4 Inhibitors: Structural Biology and Structure-Activity Relationships” (J Med Chem, 2016).

Experiment [1] deals with 3',5'-cyclic-AMP phosphodiesterase 4B (Homo sapiens, UniProt Q07343). Kind of experiment: Inhibition of human recombinant PDE4B1 assessed as reduction in [3H]cAMP hydrolysis to [3H]AMP incubated for 60 mins by PDE-SPA assay. The gist of the method:
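Compounds were run from 10 μM to 10 pM in 5% final DMSO. Incubation was 60 min at room temperature with agitation (~10–20% conversion), then stopped with PDE SPA beads. [3H]AMP was counted by scintillation. Duplicates; IC50 calculated.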

The nature of experiment [2]: Selectivity index, ratio of IC50 for adenosine A1/A2a/A2b receptor (unknown origin) to IC50 for inhibition of PDE4 in PBMC (unknown origin) assessed as reduction in LPS-induced TNFalpha production. Also noted: species or system Homo sapiens.
The nature of experiment [3]: Inhibition of PDE4 in PBMC (unknown origin) assessed as reduction in LPS-induced TNFalpha production incubated for 24 hrs by ELISA. As to conditions: Homo sapiens. On the technique in general: In an ELISA, binding on a coated surface is turned into a signal by an enzyme label.

In the case of `CCn1nc(-c2cccc(-c3ccc(O)cc3)c2)cc(NC(=O)Nc2c(Cl)cncc2Cl)c1=O`, in experiment [1], the IC50 turned out to be 0.06 nM.
Take `CCn1nc(-c2cccc(-c3ccc(CC(=O)O)cc3)c2)cc(NC(=O)Nc2c(Cl)cncc2Cl)c1=O`: the IC50 in experiment [1] turned out to be 0.05 nM.
As for `CCn1nc(-c2cccc(-c3cccc(CC(=O)NCCCCCCCN(C)CCO)c3)c2)cc(NC(=O)Nc2c(Cl)cncc2Cl)c1=O`, the IC50 in experiment [1] is 0.05 nM.
The same measure, in the same setting: the value for `CCn1nc(-c2cccc(Br)c2)cc(NC(=O)Nc2c(Cl)cncc2Cl)c1=O` was 1.7 nM.
On to `CCn1nc(-c2cccc(-c3cc(OCC4CC4)cc(C(=O)NCCN4CCCCC4)c3)c2)cc(NC(=O)Nc2c(Cl)cncc2Cl)c1=O`, for which the IC50 in experiment [1] is 0.15 nM. The “Ratio IC50” value in experiment [2] is 92.
`CCn1nc(-c2cccc(-c3cncc(O)c3)c2)cc(NC(=O)Nc2c(Cl)cncc2Cl)c1=O`: the IC50 in experiment [1] worked out at 0.085 nM.
The same measure, in the same setting: then `CCn1nc(-c2cccc(-c3ccc(CC(=O)NCCN4CCCCC4)cc3)c2)cc(NC(=O)Nc2c(Cl)cncc2Cl)c1=O`, with 0.05 nM; and `CCn1nc(-c2cccc(-c3ccc(F)c(C(=O)O)c3)c2)cc(NC(=O)Nc2c(Cl)cncc2Cl)c1=O`, with 0.16 nM; and `CCn1nc(-c2cccc(-c3ccccc3C(=O)O)c2)cc(NC(=O)Nc2c(Cl)cncc2Cl)c1=O`, with 4.83 nM.
As to `CCn1nc(-c2cccc(-c3cc(C(=O)NCCCN(C)C)cc(C(=O)OC)c3)c2)cc(NC(=O)Nc2c(Cl)cncc2Cl)c1=O`, the IC50 in experiment [1] stood at 0.03 nM. The “Ratio IC50” value in experiment [2] is above 1000.
For the compound `CCn1nc(-c2cccc(-c3cccc(C(=O)NCCN4CCNCC4)c3)c2)cc(NC(=O)Nc2c(Cl)cncc2Cl)c1=O`, in experiment [1], the IC50 is 0.38 nM.
As for `CCn1nc(-c2cccc(-c3cccc(C(=O)NCCC4CCCN4C)c3)c2)cc(NC(=O)Nc2c(Cl)cncc2Cl)c1=O` (configuration not stated), in experiment [1], the IC50 stood at 0.05 nM.
Turning to `CCn1nc(-c2cccc(-c3cc(C(=O)NCCO)cc(C(=O)NCCN4CCCCC4)c3)c2)cc(NC(=O)Nc2c(Cl)cncc2Cl)c1=O`, the IC50 in experiment [1] is 0.03 nM. In experiment [2], the “Ratio IC50” value is above 865.
As to `CCn1nc(-c2cccc(-c3ccc(O)c(F)c3)c2)cc(NC(=O)Nc2c(Cl)cncc2Cl)c1=O`, the IC50 in experiment [1] stood at 0.06 nM.
As to `CCn1nc(-c2cccc(-c3cc(C(=O)NCCN4CCCCC4)cc(C(=O)NC4CC4)c3)c2)cc(NC(=O)Nc2c(Cl)cncc2Cl)c1=O`, the IC50 in experiment [1] is 0.06 nM. In experiment [2], the “Ratio IC50” value turned out to be 271.
For the compound `CCn1nc(-c2cccc(-c3ccc(C(N)=O)cc3)c2)cc(NC(=O)Nc2c(Cl)cncc2Cl)c1=O`, in experiment [1], the IC50 stood at 0.11 nM.
Take `CCn1nc(-c2cccc(-c3cc(C(=O)O)ccc3F)c2)cc(NC(=O)Nc2c(Cl)cncc2Cl)c1=O`: in experiment [1], the IC50 stood at 0.08 nM.
On to `CCn1nc(-c2cccc(-c3cncc(C(=O)O)c3)c2)cc(NC(=O)Nc2c(Cl)cncc2Cl)c1=O`, for which the IC50 in experiment [1] worked out at 0.14 nM.
On to `CCn1nc(-c2cccc(-c3cccc(C(=O)NCCN4CCCCC4)c3)c2)cc(NC(=O)Nc2c(Cl)cncc2Cl)c1=O`, for which the IC50 in experiment [1] worked out at 0.13 nM.
As for `CCNC(=O)c1cc(C(=O)NCCCN(C)C)cc(-c2cccc(-c3cc(NC(=O)Nc4c(Cl)cncc4Cl)c(=O)n(CC)n3)c2)c1`, the IC50 in experiment [1] was 0.05 nM. In addition, the “Ratio IC50” value in experiment [2] was above 1000.
On the same counts, the results for `CCn1nc(-c2cccc(-c3cc(C(=O)NCC[C@H]4CCCN4C)cc(C(=O)NC4CC4)c3)c2)cc(NC(=O)Nc2c(Cl)cncc2Cl)c1=O` are 0.05 nM and 486.
Consider `CCOc1cc(C(=O)NC2CC2)cc(-c2cccc(-c3cc(NC(=O)Nc4c(Cl)cncc4Cl)c(=O)n(CC)n3)c2)c1`, for which, in experiment [1], the IC50 was 0.31 nM. The “Ratio IC50” value in experiment [2] amounted to 245.
For the compound `CCn1nc(-c2cccc(-c3cc(F)ccc3O)c2)cc(NC(=O)Nc2c(Cl)cncc2Cl)c1=O`, in experiment [1], the IC50 was 0.24 nM.
As to `CCn1nc(-c2cccc(-c3cccc(CC(=O)O)c3)c2)cc(NC(=O)Nc2c(Cl)cncc2Cl)c1=O`, the IC50 in experiment [1] came to 0.04 nM.
In the case of `CCn1nc(-c2cccc(-c3cccc(C(=O)NC4CC4)c3)c2)cc(NC(=O)Nc2c(Cl)cncc2Cl)c1=O`, the IC50 in experiment [1] is 0.03 nM.
`CCn1nc(-c2cccc(-c3cc(C(=O)NCCN4CCOCC4)cc(C(=O)NC4CC4)c3)c2)cc(NC(=O)Nc2c(Cl)cncc2Cl)c1=O`: the half-maximal inhibitory concentration (IC50) in experiment [1] and in experiment [3] was 0.09 nM each time. The “Ratio IC50” value in experiment [2] was above 1000.
Regarding `CCn1nc(-c2cccc(-c3ccc(CC(=O)NCCCCCCCN(C)CCO)cc3)c2)cc(NC(=O)Nc2c(Cl)cncc2Cl)c1=O`, the IC50 in experiment [1] worked out at 0.03 nM.
As to `CCn1nc(-c2cccc(-c3ccc(O)nc3)c2)cc(NC(=O)Nc2c(Cl)cncc2Cl)c1=O`, the IC50 in experiment [1] was found to be 0.38 nM.
Turning to `CCn1nc(-c2cccc(-c3ccccc3O)c2)cc(NC(=O)Nc2c(Cl)cncc2Cl)c1=O`, the IC50 in experiment [1] was 0.35 nM.
On to `CCn1nc(-c2cccc(-c3cccc(C(N)=O)c3)c2)cc(NC(=O)Nc2c(Cl)cncc2Cl)c1=O`, for which the IC50 in experiment [1] worked out at 0.05 nM.
Take `CCn1nc(-c2cccc(-c3cccc(C(=O)O)c3)c2)cc(NC(=O)Nc2c(Cl)cncc2Cl)c1=O`: the IC50 in experiment [1] was found to be 0.07 nM.
Take `CCn1nc(-c2cccc(-c3cccc(O)c3F)c2)cc(NC(=O)Nc2c(Cl)cncc2Cl)c1=O`: the IC50 in experiment [1] was 0.6 nM.
With `CCn1nc(-c2cccc(-c3cccc(C(=O)NCCCCCCCN(C)CCO)c3)c2)cc(NC(=O)Nc2c(Cl)cncc2Cl)c1=O`, in experiment [1], the IC50 was 0.03 nM.
As to `CCn1nc(-c2cccc(-c3cccc(O)c3)c2)cc(NC(=O)Nc2c(Cl)cncc2Cl)c1=O`, the IC50 in experiment [1] was determined as 0.35 nM.
As for `CCn1nc(-c2cccc(-c3ccc(O)cc3F)c2)cc(NC(=O)Nc2c(Cl)cncc2Cl)c1=O`, the IC50 in experiment [1] came out at 0.04 nM.
As to `CCn1nc(-c2cccc(-c3cc(C(=O)NC4CC4)cc(C(=O)NC4CC4)c3)c2)cc(NC(=O)Nc2c(Cl)cncc2Cl)c1=O`, the IC50 in experiment [1] worked out at 0.21 nM. In addition, the “Ratio IC50” value in experiment [2] was found to be 810.
With `CCn1nc(-c2cccc(-c3ccc(F)cc3O)c2)cc(NC(=O)Nc2c(Cl)cncc2Cl)c1=O`, in experiment [1], the IC50 was found to be 0.7 nM.
On the same count and under the same terms, the value for `CCn1nc(-c2cccc(-c3cccc(C(=O)NCCN(C)C)c3)c2)cc(NC(=O)Nc2c(Cl)cncc2Cl)c1=O` was 0.05 nM; that for `CCn1nc(-c2cccc(-c3ccc(C(=O)O)cc3)c2)cc(NC(=O)Nc2c(Cl)cncc2Cl)c1=O` was 0.08 nM.
On to `CCn1nc(-c2cccc(-c3cc(C#N)cc(C(=O)NC4CC4)c3)c2)cc(NC(=O)Nc2c(Cl)cncc2Cl)c1=O`, for which the IC50 in experiment [1] was determined as 0.37 nM. Besides, in experiment [2], the “Ratio IC50” value is above 1000.
Take `CCn1nc(-c2cccc(-c3cccc(C(=O)NCCN4CCOCC4)c3)c2)cc(NC(=O)Nc2c(Cl)cncc2Cl)c1=O`: in experiment [1], the IC50 was 0.014 nM.
